This note sets out measurements from patent US7282508B2, “Substituted 4-phenyl-4-(1H-imidazol-2-yl)-piperidine derivatives and their use as selective non-peptide delta opioid agonists” (Janssen Pharmaceutica N.V., priority 2001, dated 2007).

This assay concerns the target T1, cloned human δ opioid receptor (Homo sapiens, UniProt P41143).
T1 construct: expressed in transfected cells; host or cells: C6 glioma cells (membrane preparation)
The assay can be described thus: Radioligand binding, competitive inhibition of [3H]DPDPE.

SMILES strings stand for the structures.

On to `COCC(=O)N1CCC(c2ccccc2)(c2nccn2Cc2ccc(C(=O)OC)cc2)CC1` [Compound 30], for which the IC50 – broadly, the concentration that inhibits the measured activity by half – was 0.0126 µM.
